# PGC1a acetyl inh = inhibitors of PGC1a acetylation signal, primary screen, cell-based, U2OS, AlphaScreen, inhibitor mode. AID 651687, 2012. inhibition, % at 15.6 µM. AlphaScreen anti-acetyl-lysine; with virally co-expressed GCN5 acetyltransferase. hit rate 0.17% among 350,000;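 active = every replicate shows inhibition of at least 40%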
# FN deposition inh = inhibitors of fibronectin matrix deposition, primary screen, AH1F cells, Alexa488-fibronectin fluorescence, plate reader. AH1F fibroblasts, overnight. inhibition, % at 12.6 µM. hit rate 0.086% among 350,000;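 active = mean inhibition across replicates of 30% or more, regardless of how many single replicates reach that level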
#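 Material: AH1F fibroblast monolayer depositing Alexa488-labelled fibronectin into matrix | Input: 10000 AH1F cells/well | Medium: DMEM plus 2% serum, read in PBS | Reagent: Alexa488-fibronectin, 24 nM final in well | Compound dosing: One dose per compound, pinned | Schedule: 1 h adhesion, overnight exposure | Measured by: Fluorescence at 485 nm excitation, 525 nm emission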
# UUG fidelity = modulators of yeast start codon fidelity, primary screen, whole organism, S. cerevisiae, single point, plate reader; S. cerevisiae UUG-firefly luciferase reporter, luminescence/redox ratio; activity score, % at 18.7 µM; 0.13% of 350,000 active; AID 602363, 2012;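 active = replicate mean at a twofold rise or more, about +100% in these data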;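 also: firefly luciferase made from a UUG start codon reports start codon fidelity; reporter light over untreated wells divided by growth signal over untreated wells; some hits fall short of that in this replicate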
# Cneo AK release = Cryptococcus neoformans cell lysis inducers, primary screen, AK release luminescence, single concentration | C. neoformans lysis, adenylate kinase release luminescence, 4 h; normalised: neutral wells 0, clomiphene wells 100 | lysis activity, % at 15 µM | hit rate 0.2% among 360,000 | AID 651654, 2012;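 active = mean lysis activity across replicates of at least 80%, whatever share of replicates individually reach that level; inactive = mean lysis activity below 80%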
#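 Assay system: log-phase C. neoformans yeast / Quantity: yeast cell density of 5 × 10^6 cells/mL / Medium: fresh YPD growth medium / Compound: single dose / Timing: static 4 h at 37 °C with compound, 1 h detection / Measured by: adenylate kinase release luminescence / Read-out: lysis from increased AK signal / Benchmarks: Clomiphene as positive lysis control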
# Env fusion inh = inhibitors of HIV-1 Env-driven cell-cell fusion, primary screen, HeLa-JRFL effector, CEM21 target cells, luciferase | inhibition, % at 12.3 µM | hit rate 1.1% among 360,000;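 active = mean replicate inhibition score of at least 50 and every replicate individually at or above 50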
# miR-122 sensor = miR-122 Renilla sensor signal increase in Huh7, primary screen, miR-122 inhibitor project, cell-based, single point, plate reader. hit rate 0.3% among 340,000. activation (reporter increase), % at 12.5 µM. Huh7 miR-122 Renilla luciferase sensor, 48 h; neutral wells = 0, positive control = 100;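 active = mean replicate activation score at least 90 and every replicate individually at or above 90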;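 note: higher luciferase means less miR-122 activity so hits act as miR-122 inhibitors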
# Hits are given with their value; i = inactive; nt = no result given; ! = a repeat was not active; [ ] = another dose, or the depositor's remark. Only some compounds are listed: those with a hit (about 1.5% of all), similar ones and a draw of the others.
SMILES,PGC1a acetyl inh,FN deposition inh,UUG fidelity,Cneo AK release,Env fusion inh,miR-122 sensor
C[C@H](CO)N1C[C@H](C)[C@H](CN(C)S(=O)(=O)c2cccc(F)c2)Oc2cc(C#CCN(C)C)ccc2S1(=O)=O,i,i,nt,i,i,i
CC(C)CC#Cc1ccc2c(c1)O[C@@H](CN(C)S(=O)(=O)c1ccc(F)cc1)[C@H](C)CN([C@H](C)CO)S2(=O)=O,i,i,i,i,i,i
C[C@@H]1CN([C@H](C)CO)S(=O)(=O)c2ccc(-c3cccc(F)c3)cc2O[C@@H]1CN(C)S(=O)(=O)c1ccc(F)cc1,i,i,i,i,56[16.7 µM],i
CC(C)CC#Cc1ccc2c(c1)O[C@H](CN(C)S(=O)(=O)c1cccc(F)c1)[C@@H](C)CN([C@H](C)CO)S2(=O)=O,i,nt,i,i,i,i
C[C@H](CO)N1C[C@H](C)[C@H](CN(C)S(=O)(=O)c2cccc(F)c2)Oc2cc(Br)ccc2S1(=O)=O,i,i,i,i,78![16.7 µM],i
C[C@@H]1CN([C@H](C)CO)S(=O)(=O)c2ccc(Br)cc2O[C@H]1CN(C)S(=O)(=O)c1ccc(F)cc1,i,i,i,i,i,i
COc1ccccc1-c1ccc2c(c1)O[C@@H](CN(C)S(=O)(=O)c1ccccc1)[C@@H](C)CN([C@H](C)CO)S2(=O)=O,i,i,i,i,i,i
COc1ccccc1-c1ccc2c(c1)O[C@H](CN(C)S(=O)(=O)c1ccccc1)[C@H](C)CN([C@H](C)CO)S2(=O)=O,i,i,i,i,56[16.7 µM],i
O=C(c1cc(-c2ccccc2)on1)N1CCCc2ccccc21,i,i,nt,nt,i,i
CCc1ccc(N(C(=O)c2snc(C(N)=O)c2N)C(C(=O)NCCC(C)C)c2c[nH]c3ccccc23)cc1 (stereo not given),i,i,i,i,118,i
CCC(C)(C)C(=O)O[C@H]1C[C@@H](C)C=C2C=C[C@H](C)[C@H](CC[C@@H]3C[C@@H](O)CC(=O)O3)[C@H]21,i,i,i,i,67,i
COc1ccc(OCC(=O)Nc2cc(-c3nn(C)c(=O)c4ccccc34)ccc2OC)cc1,i,i,i,i,86,i
Nc1c(S(=O)(=O)c2cccs2)c2nc3ccccc3nc2n1CCc1ccccc1,nt,i,nt,nt,81,nt
Cc1ccc(S(=O)(=O)c2c(N)n(CCCO)c3nc4ccccc4nc23)cc1,i,nt,nt,nt,nt,i
Cc1ccc(S(=O)(=O)c2c(N)n(CCC(C)C)c3nc4ccccc4nc23)cc1,i,i,i,i,81,i
CC[C@H]1C(c2ccc(F)cc2)=NN(c2ccccc2)[C@@H]1CO,i,i,i,i,60,i
CCCNC1=C(N(C(C)=O)c2cccc(F)c2)C(=O)c2ccccc2C1=O,i,i,i,i,78,i
CC(=O)c1ccc(-n2nnnc2SCC(=O)NC2CCCCC2)cc1,i,i,i,i,i,i
Cc1ccc2nc(NC(=O)CSCC(=O)OCC(=O)c3ccc(Br)cc3)sc2c1,nt,i,i,i,73,i
COC(=O)c1ccc2nc(NC(=O)CSCC(=O)OCC(=O)c3ccccc3)sc2c1,i,i,i,i,i,i
Cc1ccccc1OCC(=O)Nc1cccc(C(=O)O)c1,nt,i,nt,nt,76,nt
Cc1ccc(C(=O)Nc2cnc3ccccc3c2)cc1,i,i,i,i,94,i
CCOc1ccc(NC(=O)Nc2cccc(C(=O)O)c2)cc1,i,i,nt,nt,63,i
Cc1ccc(C(=O)Nc2cccc(C(=O)O)c2)cc1,nt,nt,nt,nt,117,nt
Cc1ccc(S(=O)(=O)N/N=C/c2ccc(O)c(O)c2)cc1[N+](=O)[O-],i,i,i,i,i,i
O=C(Cc1ccncc1)NCC[C@@H]1CC[C@H](NC(=O)C2CCC2)[C@H](CO)O1,i,nt,nt,i,i,nt
O=C(Nc1cccc(Cl)c1)Nc1cccc(C(=O)O)c1,i,i,i,i,i,i
O=C(Nc1ccc(Cl)cc1)Nc1cccc(C(=O)O)c1,i,i,nt,nt,71,i
